Values of other authors, collected in patent publication US4520134A, “N-alkyl-4'-hydroxyacetanilides, pharmaceutical compositions comprising them and their use” (priority 1984, dated 1985).

Settings: man and experimental animals; cited from earlier work

SMILES: OCC(S)CS (stereo not shown) [dimethlymercaptol]
- protection against acetaminophen hepatotoxicity: varying degrees of protection
